Results on 2 molecules are retold here after ChEMBL document CHEMBL1133037, “The design, synthesis and physical chemical properties of novel human vasopressin V2-receptor antagonists optimized for parenteral delivery” (Bioorg Med Chem Lett, 2000).

Amino acid sequences for entries named in this document (tags omitted).
UniProt P30518, whole entry: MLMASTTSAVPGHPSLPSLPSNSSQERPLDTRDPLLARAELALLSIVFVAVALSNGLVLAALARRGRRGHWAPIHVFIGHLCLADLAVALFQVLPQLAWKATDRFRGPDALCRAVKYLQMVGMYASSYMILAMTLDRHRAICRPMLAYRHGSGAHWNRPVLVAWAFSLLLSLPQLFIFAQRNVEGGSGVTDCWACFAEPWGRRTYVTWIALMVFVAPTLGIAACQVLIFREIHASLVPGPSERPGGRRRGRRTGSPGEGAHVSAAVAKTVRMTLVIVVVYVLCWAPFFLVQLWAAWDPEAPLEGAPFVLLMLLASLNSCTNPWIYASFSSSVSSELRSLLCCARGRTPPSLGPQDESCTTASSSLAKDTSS

The target in the experiment is Vasopressin V2 receptor (Homo sapiens, UniProt P30518). The experiment can be described thus: Displacement of [3H]AVP from human vasopressin V2-receptor expressed in murine fibroblast cell (LV2) membranes. The class given is cell-based.

The structures appear in SMILES notation.

In the case of `O=C(Nc1ccc(C(=O)N2Cc3ccc(C(=O)O)n3Cc3ccccc32)c(Cl)c1)c1ccccc1-c1ccccc1`, the IC50 is 4 nM.
To `CN1CCN(C(=O)c2ccc3n2Cc2ccccc2N(C(=O)c2ccc(NC(=O)c4ccccc4-c4ccccc4)cc2Cl)C3)CC1.O=C(O)CC(O)(CC(=O)O)C(=O)O` belongs 11.5 nM.
